# Assay results taken from US9890166B2, “Imidazopyrrolidine derivatives and their use in the treatment of disease” (NOVARTIS AG, priority 2013, dated 2018).
# Amino acid sequences for entries named in this document (tags omitted). Residues count along the entry.
# UniProt P25440, 60-472: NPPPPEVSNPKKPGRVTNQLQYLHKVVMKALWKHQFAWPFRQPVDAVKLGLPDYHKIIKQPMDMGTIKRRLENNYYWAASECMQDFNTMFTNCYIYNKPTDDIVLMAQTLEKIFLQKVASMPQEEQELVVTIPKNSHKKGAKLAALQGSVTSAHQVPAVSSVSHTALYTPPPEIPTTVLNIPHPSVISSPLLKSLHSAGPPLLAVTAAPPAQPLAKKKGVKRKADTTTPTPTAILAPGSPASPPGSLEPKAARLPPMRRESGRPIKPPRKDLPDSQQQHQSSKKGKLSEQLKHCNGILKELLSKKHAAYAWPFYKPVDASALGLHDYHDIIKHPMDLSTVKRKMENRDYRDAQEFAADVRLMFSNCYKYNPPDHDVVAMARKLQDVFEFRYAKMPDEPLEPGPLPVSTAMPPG
# UniProt Q15059, 20-477: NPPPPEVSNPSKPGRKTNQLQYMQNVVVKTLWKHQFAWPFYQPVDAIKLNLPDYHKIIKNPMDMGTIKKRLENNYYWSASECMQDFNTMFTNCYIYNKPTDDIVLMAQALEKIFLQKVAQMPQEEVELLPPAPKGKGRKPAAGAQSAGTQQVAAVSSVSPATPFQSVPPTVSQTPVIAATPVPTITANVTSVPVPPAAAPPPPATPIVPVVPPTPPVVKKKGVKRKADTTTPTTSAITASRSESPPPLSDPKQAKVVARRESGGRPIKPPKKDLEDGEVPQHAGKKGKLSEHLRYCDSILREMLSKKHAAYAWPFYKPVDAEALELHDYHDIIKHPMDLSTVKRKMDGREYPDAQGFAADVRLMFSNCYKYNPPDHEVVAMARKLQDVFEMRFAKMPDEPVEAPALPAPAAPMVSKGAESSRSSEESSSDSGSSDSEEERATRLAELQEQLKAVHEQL
# UniProt Q92793, 1081-1197: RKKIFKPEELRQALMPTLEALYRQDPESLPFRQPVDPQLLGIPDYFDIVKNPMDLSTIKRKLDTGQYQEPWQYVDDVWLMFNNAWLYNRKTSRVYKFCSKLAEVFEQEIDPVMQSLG
# Tests used:
# BRD2 (His-Brd2(60-472)) = BRD2 (His-Brd2(60-472)) (Homo sapiens (Human), UniProt P25440); experiment: TR-FRET in-vitro binding assay for BRD2; settings: read-out: Biochemical IC50 BRD2
# Procedure: (§1) TR-FRET In-Vitro Binding Assays for BRD2, BRD3, and BRD4:
# (§2) All assays were performed in 384 well microtiter plates. Each assay plate contained 8-point serial dilutions for 40 test compounds, plus 16 high- and 16 low controls. Liquid handling and incubation steps were done on an Innovadyne Nanodrop Express equipped with a robotic arm (Thermo CatX, Perkin Elmer/Caliper Twister II) and an incubator (Liconic STX40, Thermo Cytomat 2C450). The assay plates were prepared by addition of 50 nl per well of compound solution in 90% DMSO HummingBird nanodispenser (Zinsser Analytic). […] Reactions were incubated at 30° C. for 35 minutes. […] After 35 minutes incubation at 30° C., plates were measured in a Perkin Elmer EnVision multilabel reader.
# (§3) Preparation of Compound Dilutions
# (§4) Test compounds were dissolved in DMSO (10 mM) and transferred into 1.4 mL flat bottom or V-shaped Matrix tubes carrying a unique 2D matrix. The stock solutions were stored at […] if not used immediately. For the test procedure the vials were defrosted and identified by a scanner whereby a working sheet was generated that guided the subsequent working steps.
# (§5) Compound dilutions were made in 96 well plates. […]
# BRD3 (His-Brd3(20-477)) = BRD3 (His-Brd3(20-477)) (Homo sapiens (Human), UniProt Q15059); experiment: TR-FRET in-vitro binding assay for BRD3; settings: read-out: Biochemical IC50 BRD3
# Procedure: as §1, §2, §3, §4, §5
# [1] = molecular target: CREBBP bromodomain (His-CREBBP(1081-1197)) (Homo sapiens (Human), UniProt Q92793); experiment: AlphaScreen in-vitro binding assay for CREBBP; settings: read-out: Biochemical IC50 CREBBP
# Procedure: AlphaScreen In-Vitro Binding Assay for CREBBP
# In order to assess bromodomain selectivity, we set up a binding assay using the bromodomain encoded by the CREBBP gene. […] Reactions were incubated at 30° C. for 35 minutes. Subsequently 4.5 μl per well detection mix (50 mM HEPES, pH 7.5, 0.005% Tween20, 0.02% BSA, 150 mM NaCl, 45 μg/ml Ni-chelate acceptor beads, 45 μg/mIstreptavidin-donor beads) (Perkin Elmer)) were added. After 60 minutes incubation at room temperature, plates were measured in a Perkin Elmer EnVision multilabel reader. IC50 values were determined from percent inhibition values at different compound concentrations by non-linear regression analysis.
# as §3, §4
# Compound dilutions were made in 96 well plates. This format enabled the assay of maximally 40 individual test compounds at 8 concentrations (single points) including 4 reference compounds, if desired (known BET inhibitors from the prior art, for this and other assays of the type disclosed herein). […]
structure (smiles),measurement,setting,value
"Cc1nc2c([nH]1)C(c1ccc(Cl)cc1)N(c1cc(C)c3nnn(C)c3c1)C2=O (stereo not drawn) [Example 1, 6-(4-chlorophenyl)-5-(3,7-dimethyl-3H-benzo[d][1,2,3]triazol-5-yl)-2-methyl-5,6-dihydropyrrolo[3,4-d]imidazol-4(1H)-one]",IC50,BRD2 (His-Brd2(60-472)),67 nM
same,IC50,BRD3 (His-Brd3(20-477)),53 nM
same,IC50,[1],7000 nM
